Results published in paper PMC4987166 (Clinical cancer research : an official journal of the …, 2016).
Marks after values point to notes of the source that are not given here.

Chains of the proteins cited; added tags and fusions are not shown. Lines headed by an entry give the natural chain unless they say otherwise; changes in a name come on top.
UniProt Q01543: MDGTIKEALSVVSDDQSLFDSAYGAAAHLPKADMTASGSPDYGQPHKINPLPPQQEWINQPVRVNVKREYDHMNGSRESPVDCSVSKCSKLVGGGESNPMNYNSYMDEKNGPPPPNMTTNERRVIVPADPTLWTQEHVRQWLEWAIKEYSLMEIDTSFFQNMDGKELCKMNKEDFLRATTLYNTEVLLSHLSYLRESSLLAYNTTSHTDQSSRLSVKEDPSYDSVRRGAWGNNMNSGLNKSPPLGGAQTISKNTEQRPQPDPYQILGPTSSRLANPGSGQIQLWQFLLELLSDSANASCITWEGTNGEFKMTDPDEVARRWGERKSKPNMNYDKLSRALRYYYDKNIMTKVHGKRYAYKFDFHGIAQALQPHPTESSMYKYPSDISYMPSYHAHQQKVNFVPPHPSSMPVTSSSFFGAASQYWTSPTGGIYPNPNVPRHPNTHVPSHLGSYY

Key:
γH2AX phosphorylation = assay: DNA damage by phosphorylation of γH2AX; assay type: cell-based; conditions: 50 nmol/L mithramycin, 50 nmol/L EC-8042 or 7.5 nmol/L EC-8105
rat = assay: Rat toxicity: liver enzymes, liver synthetic function, hematopoiesis; assay type: in vivo; conditions: 0.8 mg/kg intravenously
[1] = target: T1, EWS-FLI1 transcription factor (Homo sapiens, UniProt Q01543+Q01844); assay: NR0B1 luciferase reporter assay of EWS-FLI1 activity in TC32 cells; assay type: cell-based; conditions: read-out: IC50 of suppression of EWS-FLI1 activity; TC32 cells with NR0B1 luciferase reporter, 12 h
T1 sequence (Q01844+Q01543 with tags, fused parts or gaps): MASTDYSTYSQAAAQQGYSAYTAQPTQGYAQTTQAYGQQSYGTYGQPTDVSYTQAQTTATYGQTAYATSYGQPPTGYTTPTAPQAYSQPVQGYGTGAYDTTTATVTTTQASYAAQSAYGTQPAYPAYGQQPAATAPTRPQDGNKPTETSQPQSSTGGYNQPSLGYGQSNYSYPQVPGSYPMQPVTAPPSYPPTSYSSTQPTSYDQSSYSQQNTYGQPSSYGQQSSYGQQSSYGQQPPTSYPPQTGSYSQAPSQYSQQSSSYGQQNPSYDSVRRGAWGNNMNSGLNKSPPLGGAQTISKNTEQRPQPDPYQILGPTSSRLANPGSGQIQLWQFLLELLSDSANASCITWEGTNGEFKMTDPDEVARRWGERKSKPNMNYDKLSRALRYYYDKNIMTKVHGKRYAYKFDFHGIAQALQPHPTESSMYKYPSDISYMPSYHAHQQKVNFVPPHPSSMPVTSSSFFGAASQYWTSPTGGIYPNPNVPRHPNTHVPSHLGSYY

HepG2 cells = assay: Time-lapse microscopy of HepG2 proliferation; assay type: cell-based; conditions: 50 nmol/L mithramycin, 50 nmol/L EC-8042 or 7.5 nmol/L EC-8105
[2] = Phase I/II trial, limited by liver toxicity; ref manuscript in preparation; cited from earlier work
[3] = Serum drug levels in mice; assay type: in vivo
CD-1 mice = conditions: mouse, ref DTP website at the NCI; cited from earlier work

mithramycin
DNA damage as measured by phosphorylation of γH2AX (γH2AX phosphorylation): significant DNA damage | circulating ALT (rat): 46.99 U/L | circulating AST (rat): 149.20 U/L | IC50 [1]: 17 nM | proliferation of HepG2 cells (HepG2 cells): impaired their proliferation to a comparable extent | serum concentrations of the drug in patients [2]: 17 nM | serum levels of drug ([3]; mice, at the MTD): 385 nM | serum levels of drug in the mouse ([3]; mouse, determined in this study): over 300 nmol/L | Intraperitoneal MTD (CD-1 mice): 1.5 ^a mg/kg
